# Measured affinities in a library of Ab-14 light chain variants

Reference: Li et al. 2023, doi:10.1038/s41467-023-39022-2. File: FLAb, binding data.

All variants were tested on one target, the spike HR2 peptide PDVDLGDISGINAS (SARS-CoV-2).

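This is the validation round: designs drawn from the data on random variants, tested in the same kind of assay. Their group label is 14L_En_HC (En: ensemble of fine-tuned language models; HC: hill climbing; a sequence that several methods proposed may carry one label only). The assay is AlphaSeq: two haploid yeast populations carry antibody and antigen on their surface. After mating in shaken culture at 30 °C for 16 h, diploids were selected and their barcode pairs sequenced. A regression on co-assayed BCL2-family reference pairs converts the normalised counts of each replicate to an apparent Kd. The assay was run in six technical replicates.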

The variants keep the heavy chain, the linker and the frameworks of Ab-14 (scFv order VH, a (GGGGS)3 linker, VL).
VH: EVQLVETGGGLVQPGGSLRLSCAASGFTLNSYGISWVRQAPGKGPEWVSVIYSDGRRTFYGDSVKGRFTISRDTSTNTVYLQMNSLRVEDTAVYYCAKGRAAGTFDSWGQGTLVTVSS
VL: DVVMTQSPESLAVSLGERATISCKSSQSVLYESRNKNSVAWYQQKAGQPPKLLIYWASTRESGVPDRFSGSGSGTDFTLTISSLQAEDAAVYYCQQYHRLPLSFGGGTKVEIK

Each variant is given by its three light chain CDRs, as the data file delimits them; those of the parent are KSSQSVLYESRNKNSVA, WASTRES, QQYHRLPLS.
The read-out is the apparent dissociation constant on a log10 scale (nM): the lower, the stronger.
A mean of the replicates is given; it leaves out those without a signal.
An entry "n.d." has no value in the source: the pair was not observed among the diploids in that replicate. This suggests poor binding but is not conclusive.
Values of this round are not directly comparable with the first-round values of the same sequences.

{"CDR-L1": "NISQMFFMETKNVNNVA", "CDR-L2": "QTSTRES", "CDR-L3": "QDYHRLPLS", "log10 Kd (nM) by replicate": "-0.38 -0.28 -0.31 -0.53 -0.39 -0.22", "mean, log10 nM": "-0.35", "control signals": "0/18"}
{"CDR-L1": "KLSMSYRTESENKNSIA", "CDR-L2": "ELVTRMS", "CDR-L3": "QQYHRLPLS", "log10 Kd (nM) by replicate": "1.20 1.00 0.77 1.59 1.03 0.95", "mean, log10 nM": "1.09", "control signals": "0/18"}
{"CDR-L1": "MISQSFLIGMKAQNSVA", "CDR-L2": "QTSTRES", "CDR-L3": "QQYDRLPLS", "log10 Kd (nM) by replicate": "0.53 0.28 0.00 0.11 0.12 0.20", "mean, log10 nM": "0.20", "control signals": "0/18"}
{"CDR-L1": "MLSDTVMQGSYSRNSVA", "CDR-L2": "QESTRAD", "CDR-L3": "QQYHHLPLS", "log10 Kd (nM) by replicate": "0.62 0.42 0.31 0.42 0.27 0.51", "mean, log10 nM": "0.43", "control signals": "0/18"}
{"CDR-L1": "TISQSFLMENQFKNSVA", "CDR-L2": "QASLRES", "CDR-L3": "QCYDRLPLS", "log10 Kd (nM) by replicate": "1.14 0.81 1.17 1.43 1.32 1.80", "mean, log10 nM": "1.28", "control signals": "0/18"}
{"CDR-L1": "IISEVDAYESRNKNSIA", "CDR-L2": "DQSTRGS", "CDR-L3": "QQYDRLPLS", "log10 Kd (nM) by replicate": "0.60 0.95 0.72 0.40 0.67 0.92", "mean, log10 nM": "0.71", "control signals": "0/18"}
{"CDR-L1": "KLYQSMGYLSHNKQSIA", "CDR-L2": "DMSRREN", "CDR-L3": "QQYHRLPLS", "log10 Kd (nM) by replicate": "0.03 0.10 -0.02 -0.10 -0.14 0.11", "mean, log10 nM": "0.00", "control signals": "2/18 (3.77)"}
{"CDR-L1": "MISPSFMVESRLKNSVA", "CDR-L2": "QTSTRES", "CDR-L3": "QQYDRLPLS", "log10 Kd (nM) by replicate": "0.54 0.55 0.45 0.42 0.25 0.76", "mean, log10 nM": "0.49", "control signals": "3/18 (2.68)"}
{"CDR-L1": "TLSQMMDMTSRNVNSVA", "CDR-L2": "DLTTRGN", "CDR-L3": "QQYHRLPLS", "log10 Kd (nM) by replicate": "0.64 0.36 0.56 0.25 0.34 0.32", "mean, log10 nM": "0.41", "control signals": "1/18 (2.04)"}
{"CDR-L1": "KIMQSLNYEQFNKNSVA", "CDR-L2": "GQETRER", "CDR-L3": "QSYHRLPLS", "log10 Kd (nM) by replicate": "2.67 2.04 2.20 3.04 n.d. n.d.", "mean, log10 nM": "2.49", "control signals": "0/18"}
{"CDR-L1": "KLLQEVTGASRNRNSVA", "CDR-L2": "HNSTRED", "CDR-L3": "QQYDRLPLS", "log10 Kd (nM) by replicate": "1.18 1.38 0.74 1.60 1.25 1.27", "mean, log10 nM": "1.24", "control signals": "0/18"}
{"CDR-L1": "TISQSTQMESHNKNSVA", "CDR-L2": "DLNLRGS", "CDR-L3": "QQYDRLPLS", "log10 Kd (nM) by replicate": "0.84 1.13 0.67 0.71 0.33 0.93", "mean, log10 nM": "0.77", "control signals": "2/18 (3.30)"}
{"CDR-L1": "TLGASTLMESRNKNNVA", "CDR-L2": "QMSTRES", "CDR-L3": "QQYHRLPLS", "log10 Kd (nM) by replicate": "-0.23 -0.72 -0.53 -1.07 0.01 -1.22", "mean, log10 nM": "-0.63", "control signals": "0/18"}
{"CDR-L1": "NFPQESMYESHFKNNVA", "CDR-L2": "QTSTREP", "CDR-L3": "QQYDHLPLS", "log10 Kd (nM) by replicate": "0.70 0.65 0.38 0.53 0.52 0.87", "mean, log10 nM": "0.61", "control signals": "0/18"}
{"CDR-L1": "KLIQSVAMMSRNKNSIA", "CDR-L2": "DNSTRES", "CDR-L3": "QQYHRLPLS", "log10 Kd (nM) by replicate": "0.92 0.97 0.67 0.58 0.46 0.78", "mean, log10 nM": "0.73", "control signals": "2/18 (3.35)"}
{"CDR-L1": "SITQLVGYGQKNKNSVA", "CDR-L2": "QMSTREN", "CDR-L3": "QQYDRLPLS", "log10 Kd (nM) by replicate": "0.65 1.03 0.62 0.63 0.00 0.90", "mean, log10 nM": "0.64", "control signals": "0/18"}
{"CDR-L1": "KLRQVTGYESYLRNSVA", "CDR-L2": "QTSTRAS", "CDR-L3": "QDYHRLPLS", "log10 Kd (nM) by replicate": "1.52 1.49 0.82 0.96 1.41 1.45", "mean, log10 nM": "1.27", "control signals": "3/18 (3.61)"}
{"CDR-L1": "ALGDVTRMESNKKDSIA", "CDR-L2": "DMSNRES", "CDR-L3": "QQYHRLPLS", "log10 Kd (nM) by replicate": "0.18 0.05 -0.15 -0.10 0.01 0.07", "mean, log10 nM": "0.01", "control signals": "1/18 (1.40)"}
{"CDR-L1": "KLLQEVTGHSRHRNSVA", "CDR-L2": "HNSTRED", "CDR-L3": "QQYDRLPLS", "log10 Kd (nM) by replicate": "n.d. n.d. 2.36 2.67 2.44 n.d.", "mean, log10 nM": "2.49", "control signals": "1/18 (2.07)"}
{"CDR-L1": "MISQLFMYGSRNYNSVA", "CDR-L2": "QASTREE", "CDR-L3": "QQYDRLPLI", "log10 Kd (nM) by replicate": "0.68 1.18 0.77 1.39 1.04 1.22", "mean, log10 nM": "1.05", "control signals": "1/18 (2.31)"}
{"CDR-L1": "KISQMVTYESTWHNAIA", "CDR-L2": "QTSEREQ", "CDR-L3": "QQYHRLPLS", "log10 Kd (nM) by replicate": "1.24 1.34 0.70 1.24 1.75 1.19", "mean, log10 nM": "1.24", "control signals": "0/18"}
{"CDR-L1": "KLREVQHVESKQKNSVA", "CDR-L2": "DNSTRES", "CDR-L3": "QDYYRLPLS", "log10 Kd (nM) by replicate": "3.02 2.83 2.85 2.70 2.55 2.01", "mean, log10 nM": "2.66", "control signals": "1/18 (4.17)"}
{"CDR-L1": "KLNVSYLFEQLEKNSIA", "CDR-L2": "ENSTREK", "CDR-L3": "QHYHRLPLS", "log10 Kd (nM) by replicate": "n.d. n.d. n.d. 2.74 n.d. 3.47", "mean, log10 nM": "3.10", "control signals": "0/18"}

Top 2 of the variants detected in all replicates, tightest first:

CDR-L1,CDR-L2,CDR-L3,log10 Kd (nM) by replicate,"mean, log10 nM",control signals
TLGASTLMESRNKNNVA,QMSTRES,QQYHRLPLS,-0.23 -0.72 -0.53 -1.07 0.01 -1.22,-0.63,0/18
NISQMFFMETKNVNNVA,QTSTRES,QDYHRLPLS,-0.38 -0.28 -0.31 -0.53 -0.39 -0.22,-0.35,0/18

The authors averaged sequences with at least three values out of six and counted those with two or fewer as poor binders.
Empty control strains, which show no peptide, gave a signal in 4% of pairings with all light chain designs; the median was 2.64 and 95% of these signals were weaker than 1.59. No background was subtracted. Also given: how often the same scFv was detected with the empty control strains, with their mean in brackets.